Measurements as given in PubChem BioAssay AID1745845 (National Center for Advancing Translational Sciences (NCATS), 2022).
The list shows a part of the results, in another mix than the full data. Results filed as inconclusive are left out. Activity calls are given as the source filed them. Calls come from the whole dose curve; as a rule, active = well fitted inhibition curve with a large enough effect; inconclusive = small, poorly fitted or top-dose-only effect; inactive = no such curve, though single readings can be large or run the other way.

Test: Primary qHTS for Inhibitors of ATXN expression; note: nearly all actives have a fitted effect of over 55% in size
Settings: HEK-293 ATXN2-luciferase reporter, luminescence, 24 h; series mostly up to 57 µM; activity change, negative = inhibition: at the top concentration
% is set by controls: 0 for no effect and ±100 for the full control effect; potency is the fitted concentration of half-maximal effect.

Structure (SMILES) | activity change, negative = inhibition | Potency
C[C@H]1OP(=O)(Oc2ccccc2)C[C@@H]2O[C@@H]21 (stereo not given in full) | inactive: 2.24% | –
Cc1ccccc1CN(C)C(=O)COC(=O)C(O)(c1ccccc1)c1ccccc1 | inactive: -21% | –
CC(=O)Nc1ccc([As](=O)(O)O)c(O)c1 | inactive: 18.7% | –
O=P1(Nc2nc3ccc(Cl)cc3s2)COc2ccccc2O1 (stereo not given) | inactive: 2.83% | –
CCc1cc(O)c([N+](=O)[O-])c(C)c1[N+](=O)[O-] | inactive: -14.8% | –
CC(C)(C)C(=O)NC(Sc1ccccc1)C(Cl)(Cl)Cl (stereo not given) | inactive: 5.92% | –
Cc1ccc(OP(=O)(Nc2ccccn2)Oc2ccc(C)cc2)cc1 | inactive: 0.514% | –
CC(=O)NC(SC(=S)N(CC(C)C)CC(C)C)C(Cl)(Cl)Cl (stereo not given) | inactive: -12.3% | –
COC(=O)c1cc2c(s1)N=C(c1ccccc1)N(C)P2(=O)N1CCOCC1 (stereo not given) | inactive: -0.994% | –
CCC(=O)N1C2C3N(C(=O)CC)C1C1N(C(=O)CC)C(C(N1C(=O)CC)N3C(=O)CC)N2C(=O)CC | inactive: 8.99% | –
O=C(OC1CN2CCC1CC2)c1ccccc1 (stereo not given) | inactive: -25.7% | –
CN(C)C(=O)Oc1noc2ccccc12 | inactive: -1.71% | –
O=c1c2cc([N+](=O)[O-])ccc2[nH]c2c([N+](=O)[O-])cc([N+](=O)[O-])cc12 | – | active: 3.98 µM
Cc1ccccc1OP(=O)(Nc1ccccn1)Oc1ccccc1C | inactive: -6.57% | –
CC(NC(=O)COC(=O)C(O)(c1ccccc1)c1ccccc1)c1ccccc1 (stereo not given) | inactive: -23.9% | –
CCNC(=S)/N=C(\N)N[N+](=O)[O-] | inactive: 13.4% | –
O=C(NC1CCS(=O)(=O)C1)NP(=S)(Oc1ccccc1)Oc1ccccc1 (stereo not given) | inactive: 15.6% | –
Cc1ccc(NP(=O)(Oc2cccc(C)c2)Oc2cccc(C)c2)nc1 | inactive: 2.05% | –
c1ccc(-c2nn[nH]n2)c(-c2nn[nH]n2)c1 | inactive: -3.78% [at 11.3 µM] | –
O=P1(N(CCCl)CCCl)OCCC2CCCCN21 (stereo not given) | inactive: -0.371% | –
